Only a part is listed here, and it is no random draw. Calls of active or inactive are those of the source.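 How the source made its calls: active means inhibition of aptamer binding above 40%, roughly 3 SD of noise, on plates passing a quality check; inactive means the rest.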
Target: Beta-adrenergic receptor kinase 1 (Homo sapiens) (UniProt P25098)
Test: compounds blocking aptamer binding on GRK2 – biochemical, human GRK2, bead flow cytometry, HTS, primary screen (AID 488847);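 on inhibition of aptamer binding: median bead fluorescence of bound FAM aptamer so fluorescent compounds give negative values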
Details: FAM-aptamer displacement from GRK2, at 10 µM; hits give high values

Sequences of proteins named here, by UniProt entry; tags and fusion partners are left off.
UniProt P25098, whole entry: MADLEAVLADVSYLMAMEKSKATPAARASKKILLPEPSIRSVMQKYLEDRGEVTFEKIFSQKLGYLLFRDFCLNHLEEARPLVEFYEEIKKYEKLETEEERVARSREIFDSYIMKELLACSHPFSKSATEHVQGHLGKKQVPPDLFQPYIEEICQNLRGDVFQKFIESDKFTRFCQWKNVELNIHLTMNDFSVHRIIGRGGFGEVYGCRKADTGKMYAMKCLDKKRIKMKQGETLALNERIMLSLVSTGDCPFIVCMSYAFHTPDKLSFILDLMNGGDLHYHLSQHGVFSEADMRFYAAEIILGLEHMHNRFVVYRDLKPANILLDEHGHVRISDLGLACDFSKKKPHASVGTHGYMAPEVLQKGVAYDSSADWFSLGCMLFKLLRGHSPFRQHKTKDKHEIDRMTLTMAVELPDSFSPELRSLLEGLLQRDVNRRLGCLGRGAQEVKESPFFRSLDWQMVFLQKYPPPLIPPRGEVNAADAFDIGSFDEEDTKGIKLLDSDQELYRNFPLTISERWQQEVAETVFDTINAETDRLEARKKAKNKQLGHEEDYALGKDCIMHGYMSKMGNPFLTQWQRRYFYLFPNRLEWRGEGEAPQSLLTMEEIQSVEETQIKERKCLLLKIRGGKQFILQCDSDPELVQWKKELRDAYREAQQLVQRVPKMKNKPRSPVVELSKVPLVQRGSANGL

With `O=C(OC1CN2CCC1CC2)c1ccc(Cl)cc1` (stereo not given) as the compound, how does the inhibition of aptamer binding read?
Its inhibition of aptamer binding is “inactive”.

`O=[As](O)(O)c1cccnc1` was tested. Which inhibition of aptamer binding did it give?
Its inhibition of aptamer binding is “inactive”.

For `COc1ccccc1OP(C)(=O)Nc1cccc(Br)c1` (stereo not given), which inhibition of aptamer binding is on record?
Its inhibition of aptamer binding is inactive: 2%.

For `Cc1cccc(OCC(=O)OC2CN3CCC2CC3)c1` (stereo not given), which inhibition of aptamer binding is on record?
The inhibition of aptamer binding was “inactive”.

With `O=[As](O)(c1cccc(O)c1)c1cccc(O)c1` as the compound, how does the inhibition of aptamer binding read?
Its inhibition of aptamer binding is “inactive”.

`Cc1cc(C)cc(OP(C)(=O)Nc2ccc(C)cc2C)c1` (stereo not given) was tested. Which inhibition of aptamer binding did it give?
Its inhibition of aptamer binding is inactive: 1%.

With `CCOC(=O)c1ccc(NP(C)(=O)Oc2cc(C)cc(C)c2)cc1` (stereo not given) as the compound, how does the inhibition of aptamer binding read?
The inhibition of aptamer binding was inactive: 1%.

Which inhibition of aptamer binding does the source give for `Cc1cc(C)cc(OP(C)(=O)Nc2ccccn2)c1` (stereo not given) here?
The inhibition of aptamer binding was inactive: 1%.

`CP(=O)(Nc1cccc(Br)c1)Oc1ccccc1` (stereo not given) was tested. Which inhibition of aptamer binding did it give?
The inhibition of aptamer binding was inactive: 1%.

`Cc1ccc(C)c(NP(C)(=O)Oc2ccccc2)c1` (stereo not given) was tested. Which inhibition of aptamer binding did it give?
Its inhibition of aptamer binding is inactive: 0%.

Which inhibition of aptamer binding does the source give for `CCOP(=O)(Nc1cccc2ccccc12)OCC` here?
The inhibition of aptamer binding was “inactive”.

With `O=C(O)c1cccc(Nc2c([N+](=O)[O-])cc([N+](=O)[O-])cc2[N+](=O)[O-])c1` as the compound, how does the inhibition of aptamer binding read?
Its inhibition of aptamer binding is inactive: 0%.

With `CCOP1(=S)c2c(C)nn(CCC#N)c2N=C(c2ccccc2F)N1C` (stereo not given) as the compound, how does the inhibition of aptamer binding read?
The inhibition of aptamer binding was “inactive”.

`O=P(Nc1nccs1)(Oc1ccccc1)Oc1ccccc1` was tested. Which inhibition of aptamer binding did it give?
The inhibition of aptamer binding was “inactive”.

For `CS(=O)(=O)c1cc([N+](=O)[O-])c2no[n+]([O-])c2c1`, which inhibition of aptamer binding is on record?
Its inhibition of aptamer binding is “inactive”.

For `NC(=O)Nc1ccc([As](=O)(O)O)cc1`, which inhibition of aptamer binding is on record?
The inhibition of aptamer binding was “inactive”.

With `N#CCCN(C(=O)COC(=O)C(O)(c1ccccc1)c1ccccc1)c1ccc(F)cc1` as the compound, how does the inhibition of aptamer binding read?
The inhibition of aptamer binding was “inactive”.

With `CN(C(=O)Cc1ccccc1)[C@@H]1CC[C@]2(CCCO2)C[C@H]1N1CCCC1` as the compound, how does the inhibition of aptamer binding read?
The inhibition of aptamer binding was “inactive”.

`CCOP1(=S)c2c(C)nn(CCC#N)c2N=C(c2ccc(F)cc2)N1C` (stereo not given) was tested. Which inhibition of aptamer binding did it give?
The inhibition of aptamer binding was “inactive”.

Which inhibition of aptamer binding does the source give for `CC1=NCCc2c1[nH]c1ccccc21.O=[N+]([O-])c1cc([N+](=O)[O-])c(O)c([N+](=O)[O-])c1` here?
The inhibition of aptamer binding was inactive: 0%.

Which inhibition of aptamer binding does the source give for `CN(C(=O)Cc1ccc(Cl)c(Cl)c1)[C@H]1CC[C@@]2(CCCO2)C[C@@H]1N1CCCC1` here?
Its inhibition of aptamer binding is “inactive”.

Which inhibition of aptamer binding does the source give for `Cc1ccc(C(=O)OC2CN3CCC2CC3)cc1` (stereo not given) here?
The inhibition of aptamer binding was “inactive”.

Which inhibition of aptamer binding does the source give for `COc1cc(C2NCCC3(OCCO3)C2(C)C)cc(OC)c1OC.O=[N+]([O-])c1cc([N+](=O)[O-])c(O)c([N+](=O)[O-])c1` (stereo not given) here?
Its inhibition of aptamer binding is “inactive”.

`CC1=C2N=C(C=C3N=C(C(C)=C4[N-][C@@](C)([C@@H]5N=C1[C@](C)(CCC(=O)NC[C@@H](C)OP(=O)([O-])O[C@H]1[C@@H](O)[C@@H](n6cnc7cc(C)c(C)cc76)O[C@@H]1CO)[C@H]5CC(N)=O)[C@@](C)(CC(N)=O)[C@@H]4CCC(N)=O)[C@@](C)(CC(N)=O)[C@@H]3CCC(N)=O)C(C)(C)[C@@H]2CCC(N)=O.[C-]#N.[Co+3]` was tested. Which inhibition of aptamer binding did it give?
Its inhibition of aptamer binding is inactive: 5%.

Which inhibition of aptamer binding does the source give for `CN(C)C1(CNC(=O)c2ccc(S(C)(=O)=O)cc2)CCCCC1` here?
Its inhibition of aptamer binding is “inactive”.

— PubChem BioAssay AID488847 (NMMLSC, 2010)
